Results on one compound are retold here after US9585875B2, “TRPM8 antagonists” (Dompé S.P.A., priority 2011, dated 2017).

Sequences of proteins named here, by UniProt entry; tags and fusion partners are left off.
UniProt Q7Z2W7, whole entry: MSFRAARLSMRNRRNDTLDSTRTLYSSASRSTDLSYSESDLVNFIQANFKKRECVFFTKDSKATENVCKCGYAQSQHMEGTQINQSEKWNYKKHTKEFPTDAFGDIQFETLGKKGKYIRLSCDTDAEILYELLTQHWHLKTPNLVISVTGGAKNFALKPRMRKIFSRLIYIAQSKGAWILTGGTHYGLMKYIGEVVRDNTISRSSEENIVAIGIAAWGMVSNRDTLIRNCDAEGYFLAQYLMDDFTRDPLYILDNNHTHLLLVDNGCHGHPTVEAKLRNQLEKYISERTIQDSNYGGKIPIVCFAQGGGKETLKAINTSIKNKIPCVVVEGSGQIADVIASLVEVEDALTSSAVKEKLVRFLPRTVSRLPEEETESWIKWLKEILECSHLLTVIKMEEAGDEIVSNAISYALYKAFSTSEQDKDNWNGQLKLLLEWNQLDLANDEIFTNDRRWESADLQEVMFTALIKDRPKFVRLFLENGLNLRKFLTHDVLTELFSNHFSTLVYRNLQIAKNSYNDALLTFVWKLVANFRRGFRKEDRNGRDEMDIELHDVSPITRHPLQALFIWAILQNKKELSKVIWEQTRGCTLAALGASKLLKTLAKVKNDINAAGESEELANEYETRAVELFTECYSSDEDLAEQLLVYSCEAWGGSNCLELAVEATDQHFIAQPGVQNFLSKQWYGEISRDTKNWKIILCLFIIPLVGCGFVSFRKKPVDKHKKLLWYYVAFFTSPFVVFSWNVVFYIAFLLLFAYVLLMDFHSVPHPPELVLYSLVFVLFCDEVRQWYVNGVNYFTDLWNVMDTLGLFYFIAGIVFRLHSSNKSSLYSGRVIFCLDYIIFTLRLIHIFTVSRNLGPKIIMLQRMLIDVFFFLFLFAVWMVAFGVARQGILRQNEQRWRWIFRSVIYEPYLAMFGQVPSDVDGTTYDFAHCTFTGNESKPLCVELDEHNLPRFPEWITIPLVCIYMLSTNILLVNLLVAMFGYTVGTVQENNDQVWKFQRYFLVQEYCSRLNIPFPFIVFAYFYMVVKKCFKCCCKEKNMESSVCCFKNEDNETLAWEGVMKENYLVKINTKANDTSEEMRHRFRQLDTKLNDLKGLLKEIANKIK

The target of the test is TRPM8 (Homo sapiens, UniProt Q7Z2W7). Put plainly: cell-based.

`CCn1nnc(-c2sc(-c3cccc(F)c3)nc2O)n1` [Compound 118, 2-(3-fluorophenyl)-5-(2-ethyl-2H-tetrazol-5-yl)-1,3-thiazol-4-ol]: inhibition was half-maximal at 20 nM (IC50).
